Test results reported in article PMC4217307, “Release of GLP-1 and PYY in response to the activation of G protein-coupled bile acid receptor TGR5 is mediated by Epac/PLC-ε pathway and modulated by endogenous H2S” (Frontiers in Physiology, 2014).

Protein sequences, listed by entry. Tags and fused reporters are not part of them. Lines headed by an entry give the natural chain unless they say otherwise; changes in a name come on top.
UniProt Q80SS6: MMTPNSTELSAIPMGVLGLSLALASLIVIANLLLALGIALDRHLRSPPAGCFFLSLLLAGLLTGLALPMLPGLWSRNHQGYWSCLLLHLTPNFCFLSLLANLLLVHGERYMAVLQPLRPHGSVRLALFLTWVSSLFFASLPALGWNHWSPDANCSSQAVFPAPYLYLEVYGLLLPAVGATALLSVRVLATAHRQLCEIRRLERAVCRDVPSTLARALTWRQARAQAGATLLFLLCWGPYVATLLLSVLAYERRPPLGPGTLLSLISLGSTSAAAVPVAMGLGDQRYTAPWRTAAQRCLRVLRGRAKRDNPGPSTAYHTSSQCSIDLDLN

Biological target: T1, TGR5 (G protein-coupled bile acid receptor) (Mus musculus, UniProt Q80SS6)
T1 construct: gene Gpbar1
Assay: cell-based

EC50: 0.7 ± 0.1 µM
SMILES: CC1(C)CC[C@]2(C(=O)O)CC[C@]3(C)C(=CC[C@@H]4[C@@]5(C)CC[C@H](O)C(C)(C)[C@@H]5CC[C@]43C)[C@@H]2C1 [OA, oleanolic acid]
